The source of these data is ChEMBL document CHEMBL5030561, “Discovery of novel aminosaccharide-based sulfonamide derivatives as potential carbonic anhydrase II inhibitors” (Bioorg Med Chem Lett, 2021).

The species named for assay [1] is Homo sapiens. Kind of assay: Selectivity ratio of IC50 for inhibition of recombinant human CA9 to IC50 for inhibition of recombinant CA2 using 4-nitrophenylacetate as substrate by esterase assay.
The species entered for assay [2] is Homo sapiens. Kind of assay: Selectivity ratio of IC50 for inhibition of recombinant human CA1 to IC50 for inhibition of recombinant human CA2 using 4-nitrophenylacetate as substrate by esterase assay.

As for `CC(=O)Nc1nnc(S(N)(=O)=O)s1` [ACETAZOLAMIDE], the Selectivity ratio in the assay filed under Homo sapiens [1] worked out at 2.5; in the assay listed under Homo sapiens [2], 25.
